{"sequences": {"note": "Protein sequences, listed by entry. Tags and fused reporters are not part of them.", "UniProt P11387, whole entry": "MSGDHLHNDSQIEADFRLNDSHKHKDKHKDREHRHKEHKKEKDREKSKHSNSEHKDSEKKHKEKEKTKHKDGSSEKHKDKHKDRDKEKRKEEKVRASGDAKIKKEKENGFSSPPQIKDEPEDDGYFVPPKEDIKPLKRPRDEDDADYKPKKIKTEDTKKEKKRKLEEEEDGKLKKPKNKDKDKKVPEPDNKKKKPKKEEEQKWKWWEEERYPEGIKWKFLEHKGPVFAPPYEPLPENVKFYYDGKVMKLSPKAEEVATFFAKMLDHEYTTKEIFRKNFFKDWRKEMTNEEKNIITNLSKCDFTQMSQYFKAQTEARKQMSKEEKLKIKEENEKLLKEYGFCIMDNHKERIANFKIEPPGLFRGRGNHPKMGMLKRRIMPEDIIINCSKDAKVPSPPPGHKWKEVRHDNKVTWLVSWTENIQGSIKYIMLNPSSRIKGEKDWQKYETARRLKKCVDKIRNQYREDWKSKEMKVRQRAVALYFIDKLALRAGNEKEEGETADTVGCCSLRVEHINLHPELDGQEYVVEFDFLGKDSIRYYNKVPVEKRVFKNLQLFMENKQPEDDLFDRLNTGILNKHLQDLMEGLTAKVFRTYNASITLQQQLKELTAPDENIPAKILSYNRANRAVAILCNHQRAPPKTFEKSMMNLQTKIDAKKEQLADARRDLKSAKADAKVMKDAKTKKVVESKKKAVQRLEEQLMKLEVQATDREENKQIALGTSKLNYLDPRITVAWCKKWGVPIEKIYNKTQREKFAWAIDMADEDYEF"}, "source": "paper PMC12200682", "about": "(PLOS One, 2025)", "key": {"[1]": {"experiment": "Parallel artificial membrane permeability (PAMPA) assay", "assay_type": "in vitro ADME", "description": "PAMPA assay was outsourced to Wuxi Apptech Co. Ltd. Briefly, donor plate, acceptor plate and receiver plate formed a sandwich and 200 µL of 5.0 µM donor solutions were added. The concentrations of compounds in both plates were measured by a LC-MS/MS system after 30 minutes. The permeability coefficient (Peff, nm/s) values at pH 5 and 7.4 were calculated."}, "[2]": {"experiment": "Lipophilicity assay (chromatographic LogD)", "assay_type": "physicochemical", "details": "from HPLC retention time", "description": "Distribution coefficient (LogD, pH 7.4) was obtained by a high-throughput alternative method. Each compound was dissolved in DMSO at 10 mM. After centrifugation, the solution was measured by reversed-phase HPLC on a C18 column (50 × 4.6 mm, […] Gemini C18, Phenomenex) at pH 7.4, using fast gradient acetonitrile-aqueous buffer mobile phases. The lipophilicity was estimated from a calibration curve using six reference compounds by plotting their respectively measured retention time versus LogD in literature. The chromatographic LogD values were derived directly from the gradient retention time by using this calibration curve."}, "human topoisomerase I": {"biological_target": "human topoisomerase I (Homo sapiens, UniProt P11387)", "experiment": "Topoisomerase I inhibition assay", "assay_type": "biochemical", "details": "read-out: Top I inhibition (IC50)", "description": "Topoisomerase I inhibition assay was outsourced to Wuxi Apptech Co. Ltd. Topoisomerase I activity was measured using human topoisomerase I microplate assay kit (Inspiralis), according to the manufacturer’s instructions."}, "[3]": {"experiment": "Pharmacokinetics of payload in mice", "assay_type": "in vivo, C57BL/6 mice", "details": "0.5 mg/kg, i.v. injection"}}, "data": [{"compound": "CC[C@@]1(O)C(=O)OCc2c1cc1n(c2=O)Cc2c-1nc1cc(F)c(C)c3c1c2[C@@H](NC(=O)CO)CC3", "values": [{"measurement": "PAMPA Peff", "setting": "[1]; pH 5", "value": 2.59, "unit": "×10⁻⁶ cm/s"}, {"measurement": "PAMPA Peff", "setting": "[1]; pH 7.4", "value": 1.75, "unit": "×10⁻⁶ cm/s"}, {"measurement": "LogD (pH 7.4)", "setting": "[2]", "value": 1.43}, {"measurement": "IC50", "setting": "human topoisomerase I", "value": 970, "unit": "nM"}, {"measurement": "CL", "setting": "[3]", "value": 54, "unit": "mL/min/kg"}, {"measurement": "Vss", "setting": "[3]", "value": 1.276, "unit": "L/kg"}, {"measurement": "t1/2", "setting": "[3]", "value": 16.2, "unit": "min"}]}]}
